Target: PDPK1 enzyme (Homo sapiens, UniProt O15530)
Experiment: PDK1-OMNIA kinase assay (ST28-Sox peptide)
Conditions: read-out: Inhibition/Modification Designation (IC50, PDK1-OMNIA); PDPK1 enzyme pre-incubated 30 min at 25° C. with compound; [ATP]=5 μM; ST28-Sox peptide substrate

Amino acid sequences for entries named in this document (tags omitted).
UniProt O15530, whole entry: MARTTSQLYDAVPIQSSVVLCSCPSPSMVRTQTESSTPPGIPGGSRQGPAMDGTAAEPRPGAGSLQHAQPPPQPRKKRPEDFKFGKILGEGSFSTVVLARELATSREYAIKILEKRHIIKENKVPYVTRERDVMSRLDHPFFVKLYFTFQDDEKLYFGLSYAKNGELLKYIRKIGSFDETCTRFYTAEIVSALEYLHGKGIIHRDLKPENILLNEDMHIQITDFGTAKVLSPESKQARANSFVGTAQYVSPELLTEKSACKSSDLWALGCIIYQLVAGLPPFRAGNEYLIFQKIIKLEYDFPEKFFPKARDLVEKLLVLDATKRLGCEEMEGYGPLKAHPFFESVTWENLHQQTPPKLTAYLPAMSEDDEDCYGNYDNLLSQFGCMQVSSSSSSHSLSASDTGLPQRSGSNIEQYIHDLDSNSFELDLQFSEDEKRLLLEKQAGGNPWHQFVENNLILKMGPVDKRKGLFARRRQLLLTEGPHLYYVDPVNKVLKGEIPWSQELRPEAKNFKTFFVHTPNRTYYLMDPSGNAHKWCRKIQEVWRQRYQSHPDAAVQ

CC(C)(C(N)=O)C(=O)NCCCNc1nc(Nc2cccc(NC(=O)CNC(=O)[C@H]3CCC(=O)O3)c2)ncc1Br
IC50: 10 to 100 nM
